Measured values as given in patent publication US20190070174A1, “METHODS OF TREATING NEURODEGENERATIVE DISEASES” (priority 2016, published 2019).

Tested on: Drd2 transcripts
Assay: Subchronic treatment of Q84 mice, quantitative RT-PCR
Type: in vivo, mouse
Settings: brainstem of Q84 mice
Method: YACMJD84.2 transgenic mice were housed in cages with a maximum number of five animals and maintained in a standard 12-hour light/dark cycle with food and water ad libitum. Genotyping was performed using DNA isolated from tail biopsy at the time of weaning, and genotypes of all studied mice were confirmed using DNA extracted from tails collected post-mortem. […] Five hours after the final injection, mice were anesthetized with ketamine/xylazine and perfused transcardially with phosphate buffered saline (PBS) (for RNA and protein studies), and brains were immediately placed on dry ice and stored at −80° C.
Reverse transcription of 1.5 μg of total RNA per sample was performed using the iScript cDNA synthesis kit (Bio-RAD). Human ATXN3 and mouse Atxn3, Drd2, 5HT1A, 5HT2A and Gapdh (housekeeping) transcript levels were accessed by quantitative real-time PCR. Relative gene expression was determined using the ΔΔCT method, normalizing for Gapdh mRNA levels.

O=C1CCc2ccc(OCCCCN3CCN(c4cccc(Cl)c4Cl)CC3)cc2N1 [aripiprazole]
Drd2 transcripts: increasing
